The assay is described as follows: Selectivity ratio of Ki for mu opioid receptor to kappa opioid receptor.

Consider `CN(C(=O)Cc1ccccc1)[C@H]1CC[C@@]2(CCCO2)C[C@@H]1N1CCCC1`, for which the Ratio Ki was determined as 292.

As to `CN(C(=O)Cc1ccc(Cl)c(Cl)c1)C1CCCCC1N1CCCC1` (configuration not stated), the Ratio Ki was determined as 630.

These data come from ChEMBL document CHEMBL1165960, “Identification of the three-dimensional pharmacophore of kappa-opioid receptor agonists” (Bioorg Med Chem, 2010).
